Measurements from ChEMBL document CHEMBL5338751, “Discovery of the First-in-Class Intestinal Restricted FXR and FABP1 Dual Modulator ZLY28 for the Treatment of Nonalcoholic Fatty Liver Disease” (J Med Chem, 2023).
The source made the active and inactive calls.

Legend:
[1] = biological target: T1, Bile acid receptor (Mus musculus) (UniProt Q60641); test: In vivo activation of FXR pathway in western diet and CCl4-induced nonalcoholic steatohepatitis C57BL/6 mouse model assessed as downregulation of CYP7A1 level in liver at 20 mg/kg, po administered for 12 weeks starting from week 8 and change in dose for every 5 days; assay type: functional, organism-based; conditions: time 4.0 weeks
T1 sequence (whole entry): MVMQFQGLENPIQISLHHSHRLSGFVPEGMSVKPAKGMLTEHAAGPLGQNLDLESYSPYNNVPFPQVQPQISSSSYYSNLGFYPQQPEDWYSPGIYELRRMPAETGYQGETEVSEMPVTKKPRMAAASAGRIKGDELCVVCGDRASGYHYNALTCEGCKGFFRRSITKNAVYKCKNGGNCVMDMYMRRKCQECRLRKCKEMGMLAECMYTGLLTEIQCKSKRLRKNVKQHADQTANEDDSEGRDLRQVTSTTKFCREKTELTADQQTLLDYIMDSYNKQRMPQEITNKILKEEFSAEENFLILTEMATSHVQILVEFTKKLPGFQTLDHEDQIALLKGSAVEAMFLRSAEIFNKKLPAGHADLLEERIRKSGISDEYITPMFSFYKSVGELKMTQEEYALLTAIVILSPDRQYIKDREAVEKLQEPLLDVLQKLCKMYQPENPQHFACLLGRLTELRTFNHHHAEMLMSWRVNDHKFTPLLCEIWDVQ

[2] = biological target: T1, Bile acid receptor (Mus musculus); test: In vivo activation of FXR pathway in western diet and CCl4-induced nonalcoholic steatohepatitis C57BL/6 mouse model assessed as upregulation of BSEP gene expression in liver at 20 mg/kg, po administered for 12 weeks starting from week 8 and change in dose for every 5 days by RT-PCR analysis; assay type: functional, organism-based; conditions: time 4.0 weeks
[3] = biological target: T1, Bile acid receptor (Mus musculus); test: Activation of FXR in C57BL/6 mouse liver assessed as upregulation of OST-beta gene expression at 20 mg/kg, po administered for 5 days and measured after 1 hr post final dose by RT-PCR analysis; assay type: organism-based; conditions: filed as activator, time 5.0 day
[4] = biological target: T1, Bile acid receptor (Mus musculus); test: Activation of FXR in C57BL/6 mouse liver assessed as upregulation of BSEP gene expression at 20 mg/kg, po administered for 5 days and measured after 1 hr post final dose by RT-PCR analysis; assay type: organism-based; conditions: filed as activator, time 5.0 day
[5] = biological target: T1, Bile acid receptor (Mus musculus); test: In vivo activation of FXR pathway in western diet and CCl4-induced nonalcoholic steatohepatitis C57BL/6 mouse model assessed as upregulation of OST-beta gene expression in liver at 20 mg/kg, po administered for 12 weeks starting from week 8 and change in dose for every 5 days by RT-PCR analysis; assay type: functional, organism-based; conditions: time 4.0 weeks
[6] = biological target: T1, Bile acid receptor (Mus musculus); test: In vivo activation of FXR pathway in western diet and CCl4-induced nonalcoholic steatohepatitis C57BL/6 mouse model assessed as upregulation of SHP gene expression in liver at 20 mg/kg, po administered for 12 weeks starting from week 8 and change in dose for every 5 days by RT-PCR analysis; assay type: functional, organism-based; conditions: time 4.0 weeks
[7] = biological target: T1, Bile acid receptor (Mus musculus); test: Activation of FXR in C57BL/6 mouse liver assessed as upregulation of SHP gene expression at 20 mg/kg, po administered for 5 days and measured after 1 hr post final dose by RT-PCR analysis; assay type: organism-based; conditions: filed as activator, time 5.0 day

Measured: Activity

O=C(O)Cc1ccc(-c2ccc(OCc3c(-c4c(Cl)cccc4Cl)noc3C3CC3)cc2)cc1
active: all assays above
